This experiment concerns the target Bcl-2 (Homo sapiens, UniProt P10415). Put plainly: TR FRET competitive binding affinity, Bcl-2. The settings on record: read-out: Target Affinity TR FRET, Bcl-2. On the procedure: A comparison of the binding affinity for each of the compounds was performed to determine target affinity, as measured by Time-Resolved Fluorescence Resonance Energy Transfer (TR FRET).
In general terms: TR-FRET usually uses a lanthanide donor and a delayed reading to cut background.

Sequences of proteins named here, by UniProt entry; tags and fusion partners are left off.
UniProt P10415, whole entry: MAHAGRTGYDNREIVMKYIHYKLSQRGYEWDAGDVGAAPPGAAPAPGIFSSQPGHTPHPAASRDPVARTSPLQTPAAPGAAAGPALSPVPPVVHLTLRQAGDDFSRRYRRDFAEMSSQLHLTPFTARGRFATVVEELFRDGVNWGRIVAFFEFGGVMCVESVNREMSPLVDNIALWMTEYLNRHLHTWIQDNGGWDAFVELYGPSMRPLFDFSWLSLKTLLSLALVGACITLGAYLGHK

On to `CN1CCN(Nc2ccc(S(=O)(=O)NC(=O)c3ccc(N4CCN(CC5=C(c6ccc(Cl)cc6)CC(C)(C)CC5)CC4)cc3Oc3cnc4[nH]ccc4c3)cc2[N+](=O)[O-])CC1` [Compound 10, 4-(4-{[2-(4-chlorophenyl)-4,4-dimethylcyclohex-1-en-1-yl]methyl}piperazin-1-yl)-N-({4-[(4-methylpiperazin-1-yl)amino]-3-nitrophenyl}sulfonyl)-2-(1H-pyrrolo[2,3-b]pyridin-5-yloxy)benzamide], for which the Ki came out at 20 pM.

The values above are taken from patent publication US9872861B2, “Methods of treatment using selective Bcl-2 inhibitors” (AbbVie Inc., priority 2010, dated 2018).
